Measurements reported in patent US9181230B2, “Morpholine compounds and uses thereof” (Hoffmann-La Roche Inc., priority 2013, dated 2015).

Amino acid sequences for entries named in this document (tags omitted).
UniProt Q923Y9, whole entry: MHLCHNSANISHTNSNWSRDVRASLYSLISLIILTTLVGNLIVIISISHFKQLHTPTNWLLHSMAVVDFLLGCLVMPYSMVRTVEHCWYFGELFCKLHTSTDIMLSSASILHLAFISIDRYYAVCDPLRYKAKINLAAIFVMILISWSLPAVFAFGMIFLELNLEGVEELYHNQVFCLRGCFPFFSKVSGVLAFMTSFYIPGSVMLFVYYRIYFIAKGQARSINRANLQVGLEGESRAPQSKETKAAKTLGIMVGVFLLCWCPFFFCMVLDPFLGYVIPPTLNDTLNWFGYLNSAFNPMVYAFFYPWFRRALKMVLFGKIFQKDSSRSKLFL
UniProt Q923Y8, whole entry: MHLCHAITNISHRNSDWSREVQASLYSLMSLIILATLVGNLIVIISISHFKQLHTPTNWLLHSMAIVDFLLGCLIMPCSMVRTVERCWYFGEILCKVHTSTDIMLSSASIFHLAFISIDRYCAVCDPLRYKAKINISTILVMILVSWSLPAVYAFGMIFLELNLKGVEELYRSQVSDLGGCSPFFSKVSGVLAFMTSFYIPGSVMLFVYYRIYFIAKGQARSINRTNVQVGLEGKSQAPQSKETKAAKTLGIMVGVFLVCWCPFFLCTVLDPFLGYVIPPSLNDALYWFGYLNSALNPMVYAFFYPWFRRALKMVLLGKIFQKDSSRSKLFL

Assays:
rat TAAR1 = rat TAAR1 (Rattus norvegicus (Rat), UniProt Q923Y9); test: Radioligand binding assay on rat TAAR1; settings: rat TAAR1, membranes of HEK-293 cells, second value of the cell pair mouse/rat
Procedure: (§1) For the construction of expression plasmids the coding sequences of human, rat and mouse TAAR 1 were amplified from genomic DNA essentially as described by Lindemann et al.. The Expand High Fidelity PCR System (Roche Diagnostics) was used with 1.5 mM Mg^2+ and purified PCR products were cloned into pCR2.1-TOPO cloning vector (Invitrogen) following the instructions of the manufacturer. PCR products were subcloned into the pIRESneo2 vector (BD Clontech, Palo Alto, Calif.), and expression vectors were sequence verified before introduction in cell lines.
(§2) HEK293 cells (ATCC # CRL-1573) were cultured essentially as described by Lindemann et al. (2005). […]
(§3) HEK-293 cells stably expressing rat TAAR1 were maintained at 37° C. and 5% CO2 in DMEM high glucose medium, containing fetal calf serum (10%, heat inactivated for 30 min at 56° C.), penicillin/streptomycin (1%), and 375 μg/ml geneticin (Gibco). […] With each new membrane batch the dissociation constant (Kd) was determined via a saturation curve. […] After addition of 45 μl of Microscint 40 (PerkinElmer) the Unifilter-96 plate was sealed and after 1 hr the ratioactivity counted using a TopCount Microplate Scintillation Counter (Packard Instrument Company).

mouse TAAR1 = mouse TAAR1 (Mus musculus (Mouse), UniProt Q923Y8); test: Radioligand binding assay on mouse TAAR1; settings: mouse TAAR1, membranes of HEK-293 cells, first value of the cell pair mouse/rat
Procedure: as §1, §2
as §3, with “expressing mouse” for “expressing rat”

Structure (SMILES)	Ki (rat TAAR1)	Ki (mouse TAAR1)
Fc1ccc(-c2cc(-c3ccc([C@H]4CNCCO4)cc3)n[nH]2)c(F)c1 [Example 13, (S)-2-(4-(5-(2,4-Difluorophenyl)-1H-pyrazol-3-yl)phenyl)morpholine hydrochloride]	0.0305 µM	–
FC(F)(F)c1cc(-c2nc3ccc([C@@H]4CNCCO4)cc3o2)ccn1 [Example 54, (R)-6-(Morpholin-2-yl)-2-(2-(trifluoromethyl)pyridin-4-yl)benzo[d]oxazole hydrochloride]	–	0.203 µM
FC(F)(F)c1cc(-c2nc3ccc([C@H]4CNCCO4)cc3o2)ccn1 [Example 55, (S)-6-(Morpholin-2-yl)-2-(2-(trifluoromethyl)pyridin-4-yl)benzo[d]oxazole hydrochloride]	–	0.0644 µM
Fc1ccc(-c2cc(-c3ccc([C@@H]4CNCCO4)cc3)n[nH]2)c(F)c1 [Example 14, (R)-2-(4-(5-(2,4-Difluorophenyl)-1H-pyrazol-3-yl)phenyl)morpholine hydrochloride]	0.183 µM	–

Counter-ions that a name gives are not always drawn.
